The conditions of data set [1]: male, beagle, dog, in vivo, po, 300 mg.
Data set [2] in a line: in vivo. As to conditions: male, beagle, dog, plasma, iv, AUCINF, 30-minute infusion, dosed compound measured in plasma.
Data set [3] can be described thus: in vivo. As to conditions: male, beagle, dog, po.
[4] abbreviates: 1 mg/kg, dog IV 1.0 mg/kg, Group 1/Group 2.

SMILES strings stand for the structures. Read-outs that look alike come from different tables or passages of the source.

One may read the Cmax as the highest concentration seen after dosing. For `COC1=NO[C@@]2(CC[C@H](C)N3C[C@H]2n2cc(C(=O)NCc4ccc(F)cc4F)c(=O)c(OCOC(=O)OCCOP(=O)(O)O)c2C3=O)C1` [Compound 3, (((3′S,5S,7′R)-10′-((2,4-difluorobenzyl)carbamoyl)-3-methoxy-3′-methyl-1′,11′-dioxo-1′,4′,5′,11′-tetrahydro-3′H,4H,7′H-spiro[isoxazole-5,6′-[2,7]methanopyrido[1,2-a][1,4]diazonin]-12′-yl)oxy)methyl (2-(phosphonooxy)ethyl) carbonate], in data set [1], the “% F” value was found to be 12.9 ± 3.4%, the AUCINF is 1860 ± 470 µM·h and the Cmax was 74.7 ± 21.4 µM.
The AUC(0-inf) is the area under the concentration-time curve extrapolated to infinity. A high value points to high exposure. The term bioavailability denotes the share of a dose that reaches the circulation, judged against a reference dose that is usually intravenous. Low values mean poor availability, high ones good availability. In the case of `CC1=NO[C@@]2(CC[C@H](C)N3C[C@H]2n2cc(C(=O)NCc4ccc(F)cc4F)c(=O)c(O)c2C3=O)C1` [Intermediate B, (3′S,5S,7′R)—N-(2,4-difluorobenzyl)-12′-hydroxy-3,3′-dimethyl-1′,11′-dioxo-1′,4′,5′,11′-tetrahydro-3′H,4H,7′H-spiro[isoxazole-5,6′-[2,7]methanopyrido[1,2-a][1,4]diazonine]-10′-carboxamide], the AUC(0-inf) was found to be 1400 ± 226 µM·h in the data set “in vivo [2]” (setting [4]) and 1940 ± 435 µM·h in “in vivo [3]” (4 mg/kg). Further, the Cmax in the data set “in vivo [3]” (4 mg/kg) came to 39.6 ± 3.8 µM. For the same molecule, the bioavailability was found to be 35.3 ± 10% in “in vivo [3]” (4 mg/kg) and 9.2% in the data set “in vivo [3]” (175 mg).
On to `COC1=NO[C@@]2(CC[C@H](C)N3C[C@H]2n2cc(C(=O)NCc4ccc(F)cc4F)c(=O)c(O)c2C3=O)C1` [Intermediate C, (3′S,5S,7′R)—N-(2,4-difluorobenzyl)-12′-hydroxy-3-methoxy-3′-methyl-1′,11′-dioxo-1′,4′,5′,11′-tetrahydro-3′H,4H,7′H-spiro[isoxazole-5,6′-[2,7]methanopyrido[1,2-a][1,4]diazonine]-10′-carboxamide], for which the AUC(0-inf) in “in vivo [2]” (0.5 mg/kg, dog IV 0.5 mg/kg, Group 3) was 250 ± 42 µM·h; in the data set “in vivo [2]” (setting [4]) it was 707 ± 98 µM·h; in “in vivo [2]” (1 mg/kg, dog IV 1.0 mg/kg, Group 4), 722 ± 98 µM·h; in “in vivo [3]” (4 mg/kg), 1040 ± 177 µM·h. This molecule came in with a Cmax in “in vivo [3]” (4 mg/kg) of 28.5 ± 2 µM. Further, the figures for the bioavailability in the data set “in vivo [3]” (4 mg/kg) and in the data set “in vivo [3]” (175 mg) were 36.4 ± 1.6% and 2.9%, respectively.

Source of the values: patent US20250120989A1, “BRIDGED TRICYCLIC CARBAMOYLPYRIDONE COMPOUNDS AND USES THEREOF” (priority 2023, published 2025).
